Test results as given in US8852552B2, “Agents and methods for visualizing analytes” (priority 2010, dated 2014).

Tested on: Biotin-His-Arg-Trp-Cys-Cys-Pro-Gly-Cys-Cys-Lys-Thr-Phe [SEQ ID NO 2]
Experiment: Surface plasmon resonance (BiaCore 3000) binding to immobilised biotinylated tetracysteine peptide

“2,5-di-(1,3,2-Dithiarsolan-2yl)-9(4-fluorophenyl)-6-methoxy-3-fluorone” was tested, and the “steady state level of bound compound” value (100 μM injected at 5 microlitres/min for 5 min, 0.01 HEPES pH7.4, 0.15 M NaCl) was “about 440 RU”, the association rate (100 μM injection) was “high” and the dissociation rate (during wash with 0.01 HEPES pH7.4, 0.15 M NaCl) was “very low”. For the same substance, the “affinity of interaction (in words)” value (inferred from association and dissociation rates) was “high affinity interaction”.
